This is an account of results in PubChem BioAssay AID588352 (The Scripps Research Institute Molecular Screening Center, 2011).

Sequences of proteins named here, by UniProt entry; tags and fusion partners are left off.
UniProt Q9Y6Q9, whole entry, looked up: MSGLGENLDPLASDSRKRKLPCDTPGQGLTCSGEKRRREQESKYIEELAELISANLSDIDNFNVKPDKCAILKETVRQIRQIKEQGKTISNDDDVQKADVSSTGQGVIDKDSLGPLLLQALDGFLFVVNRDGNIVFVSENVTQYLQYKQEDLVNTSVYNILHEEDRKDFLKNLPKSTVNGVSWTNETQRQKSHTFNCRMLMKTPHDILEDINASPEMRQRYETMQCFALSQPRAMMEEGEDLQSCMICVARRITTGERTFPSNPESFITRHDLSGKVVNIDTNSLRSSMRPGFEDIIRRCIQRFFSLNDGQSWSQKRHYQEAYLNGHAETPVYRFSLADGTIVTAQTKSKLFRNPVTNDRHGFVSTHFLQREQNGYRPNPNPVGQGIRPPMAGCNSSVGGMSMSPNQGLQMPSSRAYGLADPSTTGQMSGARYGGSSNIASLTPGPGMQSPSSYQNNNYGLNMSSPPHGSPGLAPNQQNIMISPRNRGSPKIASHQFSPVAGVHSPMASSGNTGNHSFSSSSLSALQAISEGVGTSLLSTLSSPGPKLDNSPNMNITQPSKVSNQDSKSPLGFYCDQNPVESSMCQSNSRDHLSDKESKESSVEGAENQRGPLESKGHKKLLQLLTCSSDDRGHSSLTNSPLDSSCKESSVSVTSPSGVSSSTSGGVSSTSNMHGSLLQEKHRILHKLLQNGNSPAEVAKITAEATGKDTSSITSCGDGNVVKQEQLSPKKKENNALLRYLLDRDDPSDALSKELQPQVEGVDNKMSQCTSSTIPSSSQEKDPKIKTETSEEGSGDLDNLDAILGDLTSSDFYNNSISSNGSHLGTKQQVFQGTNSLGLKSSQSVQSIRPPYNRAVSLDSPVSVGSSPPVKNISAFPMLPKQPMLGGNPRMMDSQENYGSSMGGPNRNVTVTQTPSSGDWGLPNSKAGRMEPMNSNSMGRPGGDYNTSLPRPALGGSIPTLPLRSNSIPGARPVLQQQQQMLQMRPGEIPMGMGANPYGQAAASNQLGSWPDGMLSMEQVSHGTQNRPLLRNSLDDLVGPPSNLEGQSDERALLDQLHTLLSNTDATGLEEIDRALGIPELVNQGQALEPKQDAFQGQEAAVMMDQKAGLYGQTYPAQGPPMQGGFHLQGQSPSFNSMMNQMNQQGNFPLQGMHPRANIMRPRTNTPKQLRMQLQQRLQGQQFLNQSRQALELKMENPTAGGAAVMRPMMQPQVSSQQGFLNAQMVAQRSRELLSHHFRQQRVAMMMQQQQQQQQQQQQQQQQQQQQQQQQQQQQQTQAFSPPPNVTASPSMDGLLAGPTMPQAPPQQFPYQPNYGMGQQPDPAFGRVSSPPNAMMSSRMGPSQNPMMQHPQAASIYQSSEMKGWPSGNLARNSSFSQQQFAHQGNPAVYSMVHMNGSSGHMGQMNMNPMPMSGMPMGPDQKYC

Structures are written as SMILES. The list shows a part of the results, in another mix than the full data. The source made the active and inactive calls.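 The calls were made as follows: active = inhibition above a per-campaign cutoff, the mean of all compounds plus 3 SD (cut at about 60% in these data); inactive = the rest.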

As usually defined, the inhibition is the drop in the measured response relative to a control, in per cent.

In the experiment the target is Nuclear receptor coactivator 3 (Homo sapiens) (UniProt Q9Y6Q9). Briefly: NCOA3 GAL4-fusion reporter inhibition – cell-based, luminescence, primary screen (AID 588352).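 Also: 0% = DMSO-treated cells and 100% = gossypol-treated cells at 36 µM; higher means less SRC3-driven luciferase light from the GAL4 reporter.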 The note with it: HEK293 GAL4-SRC3 luciferase reporter, at 3.6 µM, stronger effect = higher value. A general note: A reporter such as luciferase makes a cellular process visible.
For the compound `Nc1ccc([As](=O)(O)c2ccc(N)cc2)cc1`, the inhibition is inactive: 16.2%. Then `C[N+]1=C2C=CC=CC=C2SC12C([N+](=O)[O-])=CC([N+](=O)[O-])=C[C-]2[N+](=O)[O-]` (stereo not given), with inactive: -108%; and `CCN(/C(=N/P(=O)(N1CCOCC1)N1CCOCC1)N1CCOCC1)c1ccc(OC)cc1`, with inactive: -0.63%. With `CC(C)=N/N=C(\N)N[N+](=O)[O-]`, the inhibition was inactive: -12.1%. Take `CC(C)c1nc(Nc2ccccc2)n(P(=O)(N(C)C)N(C)C)n1`: the inhibition was inactive: 1.03%. Turning to `CN(C)C(=O)OCCc1n(C)cc[n+]1C`, the inhibition was inactive: 13.1%. Take `c1cc(-c2nn[nH]n2)ccc1-c1nn[nH]n1`: the inhibition was inactive: -1.66%.

Take `CC1CCN(C(=O)Oc2c(Cl)cc(Cl)c3cccnc23)CC1`: the inhibition is inactive: -4.94%. Then `COc1ccc(C2=NCC(CBr)S2)cc1` (stereo not given), with inactive: -16.6%; and `O=[N+]([O-])c1cccc2n[nH]nc12`, with inactive: 12.5%; and `CC(=O)N1C2C3N(C(C)=O)C1C1N(C(C)=O)C(C(N1C(C)=O)N3C(C)=O)N2C(C)=O`, with inactive: 24.9%. In the case of `Cc1ccc(NP(=O)(Oc2ccccc2)Oc2ccccc2)nc1`, the inhibition is inactive: 5.26%.

Consider `CCc1nc2c(n1)c1c(non1O)c1c2no[n+]1[O-]`, for which the inhibition was inactive: 5.55%. As for `O=[N+]([O-])c1cc([N+](=O)[O-])c(CCNc2ccccc2)c([N+](=O)[O-])c1`, the inhibition was inactive: 8.67%.

Turning to `CC(C)(C)C(=O)NC(Sc1ccncn1)C(Cl)(Cl)Cl` (stereo not given), the inhibition was inactive: 20.7%. The result for `O=[N+]([O-])c1ncn(CCn2ncnc2[N+](=O)[O-])n1` reads inactive: -3.16%; that for `O=[N+]([O-])c1cccc(NC2=NCC(CBr)S2)c1` (stereo not given), inactive: 14.4%. For `COC(=O)C1(C)COP(=O)(Nc2ccccc2)OC1` (stereo not given), the inhibition was inactive: -9.73%. As to `O=C(O)CNc1ccc([As](=O)(O)O)cc1`, the inhibition was inactive: 2.01%. Then `O=P1(N(CCCl)CCCl)OCCCS1` (stereo not given), with inactive: -23.5%; and `O=C(Nc1cc([As](=O)(O)O)ccc1O)c1ccccc1`, with inactive: -2.53%. With `CCN(N=Nc1nonc1N)c1nonc1N`, the inhibition is inactive: 22.8%. Then `Nc1cccc2ccc([As](=O)(O)O)cc12`, with inactive: -2.01%; and `O=C(O)c1ccccc1[As](=O)(O)O`, with inactive: 16.3%; and `CC(=O)Nc1ccc([As](=O)(O)O)cc1`, with inactive: -15%. As to `CCCC1OP(N)(=O)OCC1CC` (stereo not given), the inhibition was inactive: 0.92%.

As to `CN(C)P(=O)(N(C)C)n1c(Nc2ccccc2)nnc1-c1ccccc1`, the inhibition is inactive: -33.9%. Then `O=P(Nc1nc2ccc(Cl)cc2s1)(c1ccccc1)c1ccccc1`, with inactive: -2.13%; and `CCOP(=O)(Nc1ccccc1)OCC`, with inactive: -13.4%. `Cc1cc(SC(NC(=O)c2ccc(F)cc2)C(Cl)(Cl)Cl)ncn1` (stereo not given): the inhibition was inactive: 11.9%.

As for `Cc1ccc(NP(=O)(Oc2ccccc2F)Oc2ccccc2F)nc1`, the inhibition is inactive: 7.6%. Consider `CN(C(=O)Cc1ccc(Cl)c(Cl)c1)[C@H]1CCCC[C@@H]1N1CCCC1`, for which the inhibition is inactive: 8.84%. As for `CC(C)CC(=O)NC(Sc1ccc(Cl)cc1)C(Cl)(Cl)Cl` (stereo not given), the inhibition is inactive: 18.7%. Take `Nc1cc(N)c2nonc2c1[N+](=O)[O-]`: the inhibition was inactive: 15.1%. With `Oc1ccccc1CNc1ccccn1`, the inhibition was inactive: 3.21%. For `O=C(NC(Sc1ccncn1)C(Cl)(Cl)Cl)c1ccccc1` (stereo not given), the inhibition is inactive: 4.11%. As for `O=[N+]([O-])C1C(O)C(O)C([N+](=O)[O-])C(O)C1O` (stereo not given), the inhibition was inactive: -5.13%. Consider `NC(=O)c1cc([N+](=O)[O-])cc([N+](=O)[O-])c1N`, for which the inhibition is inactive: 12.1%. On to `CN(C(=O)Cc1ccc(Cl)c(Cl)c1)[C@H]1CCCC[C@H]1N1CCCC1`, for which the inhibition is inactive: 9.07%. Then `Cc1ccc(N/C(=N/P(=O)(N2CCOCC2)N2CCOCC2)N2CCOCC2)cc1`, with inactive: 11%. The result for `COc1ccccc1OP(=O)(Nc1ccc(C)cn1)Oc1ccccc1OC` reads inactive: -5.52%. For the compound `Cc1ccc(OP(=O)(Nc2nccs2)Oc2ccc(C)cc2)cc1`, the inhibition is inactive: 10.4%. `Clc1ccc(Cl)c(NC2=NCC(CBr)S2)c1` (stereo not given): the inhibition is inactive: -3.52%. On to `CN1CCCC(OC(=O)C(c2ccccc2)c2ccccc2)C1` (stereo not given), for which the inhibition is inactive: 10.5%. Then `N#C/C(=C\c1ccc(N(CCBr)CCBr)cc1)C(N)=O`, with inactive: -17.4%; and `CC(=O)c1ccc(N2CC2c2ccncc2)cc1` (stereo not given), with inactive: 2.54%.

In the case of `COC(=O)C1(C)COP(=O)(NCc2ccccc2)OC1` (stereo not given), the inhibition is inactive: -24.2%. `Cc1ccccc1CN(C)C(=O)COC(=O)C(O)(c1ccccc1)c1ccccc1`: the inhibition is inactive: 26.1%. Consider `C[C@@H]1C=CCP(=O)(Oc2ccccc2)O1` (stereo not given in full), for which the inhibition is inactive: -0.95%. Consider `C[C@H]1OP(=O)(Oc2ccccc2)C[C@@H]2O[C@@H]21` (stereo not given in full), for which the inhibition was inactive: -19.7%. On to `CC(=O)Nc1ccc([As](=O)(O)O)c(O)c1`, for which the inhibition is inactive: -6.8%. With `CC(=O)Nc1ccc(Oc2c([N+](=O)[O-])cc([N+](=O)[O-])cc2[N+](=O)[O-])cc1`, the inhibition was inactive: -4.38%. For `O=P1(Nc2nc3ccc(Cl)cc3s2)COc2ccccc2O1` (stereo not given), the inhibition was inactive: -16.4%. The result for `CCOc1ccc(C2=NCC(CBr)S2)cc1` (stereo not given) reads inactive: 13.7%. Turning to `CCc1cc(O)c([N+](=O)[O-])c(C)c1[N+](=O)[O-]`, the inhibition was inactive: 5.28%. As for `CC(C)(C)C(=O)NC(Sc1ccccc1)C(Cl)(Cl)Cl` (stereo not given), the inhibition was inactive: 14.1%. The result for `COC(=O)c1cc2c(s1)N=C(c1ccccc1)N(C)P2(=O)N1CCOCC1` (stereo not given) reads inactive: 10.4%; that for `Cc1ccc(OP(=O)(Nc2ccccn2)Oc2ccc(C)cc2)cc1`, inactive: 14.7%; that for `CC(=O)NC(SC(=S)N(CC(C)C)CC(C)C)C(Cl)(Cl)Cl` (stereo not given), inactive: 6.53%.

Consider `O=C(OC1CN2CCC1CC2)c1ccccc1` (stereo not given), for which the inhibition is inactive: -8.02%. As for `CCC(=O)N1C2C3N(C(=O)CC)C1C1N(C(=O)CC)C(C(N1C(=O)CC)N3C(=O)CC)N2C(=O)CC`, the inhibition was inactive: 12.6%.

As to `Cc1ccccc1OP(=O)(Nc1ccccn1)Oc1ccccc1C`, the inhibition is inactive: 18.8%. With `CC(NC(=O)COC(=O)C(O)(c1ccccc1)c1ccccc1)c1ccccc1` (stereo not given), the inhibition is inactive: 12.7%.

For `CN(C)C(=O)Oc1noc2ccccc12`, the inhibition was inactive: 3.79%.

Take `O=c1c2cc([N+](=O)[O-])ccc2[nH]c2c([N+](=O)[O-])cc([N+](=O)[O-])cc12`: the inhibition was inactive: -7.92%.
